RAD54 branch = inhibitors of human RAD54 branch migration; inhibition, % at 10.4 µM; AID 602329; RAD54 Holliday junction branch migration, FAM/BHQ fluorescence; Q92698; 360,000 tested, 0.14% active;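 active = mean normalized replicate activity at least 40 and at least half of replicates scoring 40 or more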;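 also: 0% = median of neutral control wells and 100% = median of positive control wells; inhibitors cause a drop in the FAM fluorescence signal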
E-selectin induc = E-selectin induction on HUVECs | P16581 | HUVEC E-selectin immunofluorescence imaging; normalized: neutral wells 0, TNF-alpha wells 100 | activation, % at 7.58 µM | 260,000 tested, 0.37% active | AID 686992;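 active = mean E-selectin-positive cell signal at least 10% of the positive control, reached in at least 60% of replicates, without over 20% cell loss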
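Test system: HUVEC; input: 3,000 HUVEC/well; measured by: immunofluorescence imaging; read-out: % PE-positive cells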
RAD52 inh = inhibitors of human RAD52 DNA annealing; P43351; recombinant RAD52 DNA annealing, FRET fluorescence; inhibition, % at 18.7 µM; 360,000 tested, 0.46% active; AID 651710;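 active = every replicate showing at least 50% inhibition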
XiGFP reactiv = X-chromosome reactivation activator | XiGFP mouse fibroblasts, % GFP-positive cells imaging, 3 d; cells co-treated with 5-aza-dC sensitizer; scaled so ellipticine positive control = 100% | AID 743238 | 360,000 tested, 0.055% active | activation, % at 7.58 µM;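 active = mean normalized replicate activation at least 10% and every replicate at or above 10%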;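 also: 0% = median of on-plate neutral control wells and 100% = ellipticine 6 µM median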
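System: 68-5-11 XiGFP fibroblast line; Timing: 3 days compound exposure; Compound dosing: one concentration, pinned; Benchmarks: positive control ellipticine, 6 µM final; Buffer or medium: DMEM containing 5-aza-dC.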
UUG fidelity = alters start codon recognition fidelity in yeast | S. cerevisiae UUG-firefly luciferase reporter, luminescence/redox ratio | activity score, % at 18.7 µM | hit rate 0.13% among 350,000 | AID 602363;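 active means replicate mean at a twofold rise or more, about +100% in these data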;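 further: firefly luciferase made from a UUG start codon reports start codon fidelity; reporter light over untreated wells divided by growth signal over untreated wells; some hits fall short of that in this replicate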
Numbers without * were called inactive; . = no result; ! = not active in a repeat. Only some compounds are listed: those with a hit (about 0.73% of all), similar ones and a draw of the others.

#1 O=C(C[C@@H]1CC[C@@H]2[C@H](COC[C@H](O)CN2S(=O)(=O)c2ccc(F)cc2)O1)NCC1CCCCC1
#2 O=C(C[C@@H]1CC[C@@H]2[C@H](COC[C@@H](O)CN2S(=O)(=O)c2ccc(F)cc2)O1)NCC1CC1
#3 CN1CCN(NC(=S)Nc2ccc(Oc3ccccc3)cc2)CC1
#4 COC(=O)NNC(=O)C12CC3CC(CC(C3)C1)C2
#5 NC(=S)NNC(=O)C12CC3CC(CC(C3)C1)C2
#6 CC(C)NC(=O)Nc1ccc2c(c1)C(=O)N([C@@H](C)CO)C[C@H](C)[C@@H](CN(C)Cc1ccc(C(F)(F)F)cc1)O2
#7 CC(C)NC(=O)Nc1ccc2c(c1)C(=O)N([C@@H](C)CO)C[C@@H](C)[C@@H](CN(C)Cc1ccc(C(F)(F)F)cc1)O2
#8 C[C@@H]1CN([C@@H](C)CO)C(=O)c2cc(NC(=O)Nc3ccc(C(F)(F)F)cc3)ccc2O[C@@H]1CN(C)Cc1ccc(C(F)(F)F)cc1

screen / no.	1	2	3	4	5	6	7	8
UUG fidelity	10	.	.	-8	-33	8	2	1
RAD54 branch	6	-20	.	2	-3	10	-24	-9
E-selectin induc	0	0	223*	0	55*	89*	59*	1
RAD52 inh	22	-2	2	-2	1	-4	6	-14
XiGFP reactiv	0	0	0	0	0	0	0	0

#9 CC(C)NC(=O)Nc1ccc2c(c1)C(=O)N([C@H](C)CO)C[C@@H](C)[C@H](CN(C)Cc1ccc(C(F)(F)F)cc1)O2
#10 C[C@@H]1CN([C@H](C)CO)C(=O)c2cc(NC(=O)C3CCCCC3)ccc2O[C@H]1CN(C)C(=O)Nc1ccc(F)cc1
#11 Cc1noc(C)c1S(=O)(=O)Nc1ccc2c(c1)C(=O)N([C@@H](C)CO)C[C@@H](C)[C@@H](CN(C)Cc1ccc3c(c1)OCO3)O2
#12 C[C@@H]1CN([C@@H](C)CO)C(=O)c2cc(NS(=O)(=O)c3cccs3)ccc2O[C@@H]1CN(C)S(C)(=O)=O
#13 Cc1noc(C)c1NC(=O)N(C)C[C@H]1Oc2ccc(NS(=O)(=O)c3c(C)noc3C)cc2C(=O)N([C@H](C)CO)C[C@@H]1C
#14 Cc1noc(C)c1NC(=O)N(C)C[C@H]1Oc2ccc(NS(=O)(=O)c3cccs3)cc2C(=O)N([C@H](C)CO)C[C@H]1C
#15 C[C@H]1CCCCO[C@@H](CN(C)S(=O)(=O)c2ccc(F)cc2)[C@@H](C)CN([C@@H](C)CO)C(=O)c2cc(NS(=O)(=O)c3ccc(Cl)cc3)ccc2O1
#16 COc1ccc(CN(C)C[C@@H]2OCCCC[C@H](C)Oc3ccc(NS(=O)(=O)c4cccs4)cc3C(=O)N([C@@H](C)CO)C[C@H]2C)cc1

screen / no.	9	10	11	12	13	14	15	16
UUG fidelity	18	-3	-17	-4	-9	-10	16	10
RAD54 branch	35	0	-2	6	-2	-2	-5	4
E-selectin induc	22	-1	33*	154*	31*!	29*	0	0
RAD52 inh	-14	12	7	-6	-2	0	7	20
XiGFP reactiv	0	-1	-1	0	0	0	0	0

#17 CCCNC(=O)N1[C@@H](CO)[C@@H](c2ccc(C3=CCCC3)cc2)[C@@H]1CNC(C)=O
#18 CO[C@@H]1CN(C)C(=O)c2ccc(NC(C)=O)cc2OC[C@H](C)N(Cc2cc(F)ccc2F)C[C@@H]1C
#19 COCc1cn(CC[C@H]2CC[C@H](NC(=O)Nc3ccc(OC)cc3)[C@H](CO)O2)nn1
#20 O=C(O)Cn1cc(C(=O)C(F)(F)F)c2ccccc21
#21 C[C@@H]1CN([C@@H](C)CO)C(=O)c2ccccc2-c2ccccc2CO[C@@H]1CN(C)Cc1ccncc1
#22 CC(=O)OCCNc1cc(Sc2nc3ccccc3[nH]2)c2nonc2c1[N+](=O)[O-]
#23 Cc1cc(NCc2ccccn2)n2nc(C)c(-c3ccc(Cl)cc3)c2n1
#24 C/C(=N\NC(=O)c1c[nH]c2ccccc12)c1ccc(C)o1

screen / no.	17	18	19	20	21	22	23	24
UUG fidelity	-5	11	216*	-3	.	.	-36	-22
RAD54 branch	-8	-14	-10	-3	-1	.	0	58*
E-selectin induc	0	0	-2	49*	0	.	47*	.
RAD52 inh	.	6	37	-3	7	.	-19	.
XiGFP reactiv	0	0	0	0	0	17*	0	.

#25 Cc1ccc(C(=O)N/C(=C/c2ccc(-c3ccc([N+](=O)[O-])cc3)o2)C(=O)NCCCN(C)C)cc1
#26 CCOC(CNc1cc(C)nc2c(-c3ccccc3OC)c(C)nn12)OCC
#27 COc1ccccc1-c1c(C)nn2c(NCCN3CCCC3)cc(C)nc12
#28 C[C@H](CO)N1C[C@H](C)[C@H](CN(C)Cc2ccc(C(=O)O)cc2)OCCCC[C@H](C)Oc2ccc(NC(=O)c3ccncc3)cc2C1=O
#29 C[C@@H]1CN([C@@H](C)CO)C(=O)c2cc(NC(=O)c3ccncc3)ccc2O[C@@H](C)CCCCO[C@@H]1CN(C)Cc1ccc(C(=O)O)cc1
#30 C[C@@H]1CCCCO[C@@H](CN(C)Cc2ccc(C(=O)O)cc2)[C@H](C)CN([C@H](C)CO)C(=O)c2cc(NC(=O)c3ccncc3)ccc2O1
#31 C[C@@H]1CN([C@@H](C)CO)C(=O)c2cc(NC(=O)c3ccncc3)ccc2O[C@@H](C)CCCCO[C@H]1CN(C)Cc1ccc(C(=O)O)cc1
#32 CCN(C[C@@H]1N[C@H](CO)[C@@H]1c1ccccc1)C(=O)c1ccccc1

screen / no.	25	26	27	28	29	30	31	32
UUG fidelity	.	-17	-28	-10	0	1	2	-1
RAD54 branch	.	3	-15	0	3	-6	1	-1
E-selectin induc	0	1	94*	0	0	0	0	1
RAD52 inh	18	-16	-18	101*	59*	104*	96*	-4
XiGFP reactiv	62*	0	0	0	0	0	0	0

#33 CCCNC(=O)Nc1ccc2c(c1)C(=O)N(C)C[C@@H](OC)[C@H](C)CN(C(=O)c1ccccc1F)[C@@H](C)CO2
#34 C[C@@H]1CCCCO[C@H](CN(C)Cc2ccc(C(=O)O)cc2)[C@H](C)CN([C@H](C)CO)C(=O)c2cc(NC(=O)c3ccncc3)ccc2O1
#35 C[C@@H]1CCCCO[C@@H](CN(C)Cc2ccc(C(=O)O)cc2)[C@@H](C)CN([C@@H](C)CO)C(=O)c2cc(NC(=O)c3ccncc3)ccc2O1
#36 C[C@@H]1CCCCO[C@H](CN(C)Cc2ccc(C(=O)O)cc2)[C@@H](C)CN([C@H](C)CO)C(=O)c2cc(NC(=O)c3ccncc3)ccc2O1
#37 CC[C@@H]1C/C=C\C[C@H](c2ccc(OC)cc2OC)NC(=O)[C@@H](C)CC(=O)N1
#38 Cc1noc(C)c1NC(=O)N(C)C[C@H]1Oc2ccc(NC(=O)c3ccncc3)cc2C(=O)N([C@H](C)CO)C[C@H]1C
#39 Cc1noc(C)c1NC(=O)N(C)C[C@@H]1Oc2ccc(NC(=O)c3ccncc3)cc2C(=O)N([C@H](C)CO)C[C@@H]1C

screen / no.	33	34	35	36	37	38	39
UUG fidelity	.	-8	7	-30	.	-23	-26
RAD54 branch	-4	5	4	6	.	1	0
E-selectin induc	0	0	0	0	.	348*	421*
RAD52 inh	-2	103*	105*	48	.	0	-5
XiGFP reactiv	0	0	0	0	0	0	0

Rewritten as a markdown table: entries from further up.
| item | smiles | UUG fidelity | RAD54 branch | E-selectin induc | RAD52 inh | XiGFP reactiv |
| --- | --- | --- | --- | --- | --- | --- |
| 35 | C[C@@H]1CCCCO[C@@H](CN(C)Cc2ccc(C(=O)O)cc2)[C@@H](C)CN([C@@H](C)CO)C(=O)c2cc(NC(=O)c3ccncc3)ccc2O1 | 7 | 4 | 0 | 105* | 0 |
| 36 | C[C@@H]1CCCCO[C@H](CN(C)Cc2ccc(C(=O)O)cc2)[C@@H](C)CN([C@H](C)CO)C(=O)c2cc(NC(=O)c3ccncc3)ccc2O1 | -30 | 6 | 0 | 48 | 0 |
| 37 | CC[C@@H]1C/C=C\C[C@H](c2ccc(OC)cc2OC)NC(=O)[C@@H](C)CC(=O)N1 | . | . | . | . | 0 |

Assay outcomes (PubChem BioAssay)
